# Target: RAGE tail (Homo sapiens (Human), UniProt Q15109)
# Chains of the proteins cited; added tags and fusions are not shown. Residues count along the entry.
# UniProt Q15109, 364-404: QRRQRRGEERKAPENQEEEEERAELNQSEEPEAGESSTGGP
# Assay: RAGE tail fluorescence titration (Kd determination)
# Settings: binding to RAGE tail
# Method: Binding affinities of small molecules for either CT-RAGE or FH1 are determined by performing fluorescence titrations to generate binding isotherms and standard SPR experiments.
# A number of representative amino and amido compounds of this invention were or can be tested for their inhibitory activity.
# (§1) Fluorescence quenching was used to determine binding.
# A number of representative heterocylic compounds of this invention were or can be tested for their inhibitory activity.
# as §1, §1
compound,measurement,value
COc1cc(NC(C)=O)c(Cl)cc1C(=O)Nc1nccs1 [CB-6],Kd,0.1 ± 0.05 nM
CC1=NN(c2nc3ccccc3[nH]2)C(=O)C1CCC(C)C (centres unmarked) [CB-10],Kd,3.1 ± 0.3 nM
